Results taken from ChEMBL document CHEMBL1134335, “Structure-activity relationships of pyridoxal phosphate derivatives as potent and selective antagonists of P2X1 receptors” (J Med Chem, 2001).

Target: T1, P2X purinoceptor 3 (Rattus norvegicus, UniProt P49654)
T1 sequence (P49654 whole entry): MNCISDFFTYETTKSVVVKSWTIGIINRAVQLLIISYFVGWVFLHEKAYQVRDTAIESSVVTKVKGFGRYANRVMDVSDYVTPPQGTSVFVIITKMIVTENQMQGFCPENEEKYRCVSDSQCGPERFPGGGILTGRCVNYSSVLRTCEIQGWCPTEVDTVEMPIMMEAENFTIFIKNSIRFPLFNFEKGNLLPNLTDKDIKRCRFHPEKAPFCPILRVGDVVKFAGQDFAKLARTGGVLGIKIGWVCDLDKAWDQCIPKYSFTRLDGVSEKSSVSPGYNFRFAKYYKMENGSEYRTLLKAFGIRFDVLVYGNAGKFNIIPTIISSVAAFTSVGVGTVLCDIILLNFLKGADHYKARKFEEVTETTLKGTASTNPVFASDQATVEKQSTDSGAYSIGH
Assay: Inhibition of inward ion current elicited by ATP was determined at recombinant P2X3 receptor expressed in Xenopus oocytes
Assay type: functional, cell-based, Oocyte

IC50: 0.074 µM
Compound: Cc1nc(/N=N/c2cc(S(=O)(=O)O)ccc2S(=O)(=O)O)c(COP(=O)(O)O)c(C=O)c1O [ISOPPADS]
